These are literature values, as cited in patent US8969358B2, “Buprenorphine analogs” (dated 2015).

Amino acid sequences for entries named in this document (tags omitted). A change or cut given only in a name is not applied to a line headed by its entry.
UniProt P41146: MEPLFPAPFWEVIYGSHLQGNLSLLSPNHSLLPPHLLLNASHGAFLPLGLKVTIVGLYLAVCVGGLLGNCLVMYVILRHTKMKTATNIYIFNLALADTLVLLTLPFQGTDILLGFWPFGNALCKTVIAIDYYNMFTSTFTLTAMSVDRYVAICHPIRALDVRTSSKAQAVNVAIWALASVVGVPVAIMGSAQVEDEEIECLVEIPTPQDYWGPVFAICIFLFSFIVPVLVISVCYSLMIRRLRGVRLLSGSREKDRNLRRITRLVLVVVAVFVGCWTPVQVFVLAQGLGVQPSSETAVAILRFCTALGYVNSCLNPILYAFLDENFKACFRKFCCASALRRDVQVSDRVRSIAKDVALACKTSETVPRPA

In this series the target is ORL-1 (Homo sapiens (Human), UniProt P41146). Particulars: read-out: IC50 (at least partial agonist for ORL-1); Wnendt et al., Molec. Pharmacol. 1999.

With 7-benzylidenenaltrexone, the half-maximal inhibitory concentration (IC50) was 10 µM.

The term IC50 denotes the point on the concentration scale where inhibition reaches its midpoint.
